{"source": "paper PMC11369174", "about": "(Molecular Systems Biology, 2024)", "binders": {"B1": {"name": "SQSTM1_(343-356) wild-type peptide (peptide)", "peptide": "SKEVDPSTGELQSLY"}}, "target": "Kelch-like ECH-associated protein (KEAP1) KELCH domain (human)", "assay": "fluorescence polarisation; displacement: unlabelled peptide titrated onto a complex of FITC-labelled peptide (10 nM) and protein domain (1-2x KD); 50 mM sodium phosphate buffer pH 7.4 (CASK: plus 100 mM NaCl); KD calculated from IC50; technical triplets", "settings": "both partners purified"}
{"binder": "B1", "values": [{"measurement": "Kd", "value": 900, "unit": "nM"}]}
